{
  "sequences": {"note": "Amino acid sequences for entries named in this document (tags omitted). A change or cut given only in a name is not applied to a line headed by its entry.", "UniProt P41145": "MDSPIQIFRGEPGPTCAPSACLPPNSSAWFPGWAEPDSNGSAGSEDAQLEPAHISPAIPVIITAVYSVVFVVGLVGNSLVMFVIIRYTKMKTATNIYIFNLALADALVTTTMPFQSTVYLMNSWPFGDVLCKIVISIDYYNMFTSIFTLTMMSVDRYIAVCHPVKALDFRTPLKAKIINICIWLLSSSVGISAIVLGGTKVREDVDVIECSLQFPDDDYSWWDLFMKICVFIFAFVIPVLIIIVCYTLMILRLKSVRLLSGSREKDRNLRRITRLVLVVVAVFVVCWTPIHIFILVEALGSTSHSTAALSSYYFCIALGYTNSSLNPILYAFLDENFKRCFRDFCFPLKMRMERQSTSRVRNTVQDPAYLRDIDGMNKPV"},
  "source": "PubChem BioAssay AID652031",
  "about": "(The Scripps Research Institute Molecular Screening Center, 2013)",
  "note": "The list shows a part of the results, in another mix than the full data. Activity calls are given as the source filed them. Cut-off read from the data, not from the text of the source: active = inhibition above about 50%; inactive = the rest.",
  "data": [
    {"biological_target": "Kappa-type opioid receptor (Homo sapiens) (UniProt P41145)", "assay": "antagonists of human kappa opioid receptor OPRK1, Maybridge library (AID 652031)", "details": "OPRK1 cells, antagonist mode, fluorescence readout; at 9 µM; stronger effect = higher value", "values": [
      {"smiles": "CN1CCC2(N3CCOCC3)C(C1)N=NN2c1cc(C(F)(F)F)cc(C(F)(F)F)c1", "note": "(stereo not drawn)", "inhibition": "inactive: 19%"},
      {"smiles": "CCC(=O)OCCC(=O)N1C=Cc2ccccc2C1C#N", "note": "(stereo not drawn)", "inhibition": "inactive: 12.7%"},
      {"smiles": "O=C(OC1CN2CCC1CC2)c1cccc([N+](=O)[O-])c1", "note": "(stereo not drawn)", "inhibition": "inactive: -12.4%"},
      {"smiles": "COC(=O)c1ccc2c(c1)nnn2C1CCN(Cc2ccccc2)CC1", "inhibition": "inactive: 10.8%"},
      {"smiles": "COc1ccc(OCCC(=O)N/N=C/C=C/c2ccccc2)cc1", "inhibition": "inactive: 1.1%"},
      {"smiles": "CCOC(=O)/C(=N/Nc1ccc([N+](=O)[O-])cc1)N1CC1", "inhibition": "inactive: -4.1%"},
      {"smiles": "Cn1c(NC2CCN(Cc3ccccc3)CC2)cc(=O)n(C)c1=O", "inhibition": "inactive: 20.8%"},
      {"smiles": "OC(CSc1ccccc1)CN1CCC(Nc2nccc(C(F)(F)F)n2)CC1", "note": "(stereo not drawn)", "inhibition": "inactive: 5.5%"},
      {"smiles": "O=c1[nH]c2ccccc2n1C1CCNCC1", "inhibition": "inactive: 12.2%"},
      {"smiles": "Cn1c(=O)c2c(nc3n2CCN3CCO)n(C)c1=O", "inhibition": "inactive: 10.7%"},
      {"smiles": "COc1ccc(OCCC(=O)NNC(=O)/C=C/c2ccc3c(c2)OCO3)cc1", "inhibition": "inactive: -10.3%"},
      {"smiles": "c1ccc(CN2CCC(Nc3ncnc4scc(-c5ccccc5)c34)CC2)cc1", "inhibition": "inactive: -15.7%"},
      {"smiles": "CC1(C)c2ccccc2N2CCC(=O)NC21/C=C/c1cccs1", "note": "(stereo not drawn)", "inhibition": "inactive: 16.1%"},
      {"smiles": "N#Cc1c(F)cccc1NC1CCN(Cc2ccccc2)CC1", "inhibition": "inactive: 2.6%"},
      {"smiles": "CC1CN(CCn2cnc3c(N)ncnc32)CC(C)O1", "note": "(stereo not drawn)", "inhibition": "inactive: -3.3%"},
      {"smiles": "CC(C)c1nc2ccccc2n1C1CC(=O)N(c2ccc(Cl)cc2)C1=O", "note": "(stereo not drawn)", "inhibition": "inactive: -3%"},
      {"smiles": "Cc1csc2c(NC3CCN(Cc4ccccc4)CC3)ncnc12", "inhibition": "active: 52.8%"},
      {"smiles": "c1ccc(CN2CCC3(CC2)Nc2ccccc2S3)cc1", "inhibition": "inactive: 6.9%"},
      {"smiles": "O=[N+]([O-])c1ccccc1NC1CCN(Cc2ccccc2)CC1", "inhibition": "inactive: 22.7%"},
      {"smiles": "FC(F)(F)c1ccnc(NC2CCN(Cc3ccccc3)CC2)n1", "inhibition": "inactive: 9.1%"},
      {"smiles": "OC(COc1ccc(Cl)c(Cl)c1)CN1CCC(Nc2nccc(C(F)(F)F)n2)CC1", "note": "(stereo not drawn)", "inhibition": "inactive: 9.2%"},
      {"smiles": "Cn1c(=O)c2c(ncn2CCN2CCOCC2)n(C)c1=O", "inhibition": "inactive: 11.1%"},
      {"smiles": "CC(NCCn1cnc2c(N)ncnc21)c1ccccc1", "note": "(stereo not drawn)", "inhibition": "inactive: 18.2%"}
    ]}
  ]
}
